{"source": "patent US20240415914A1", "about": "“Water Dispersible Cannabinoid Compositions” (priority 2021, published 2024)", "format": "physicochemical", "experimental": "At each time period, 0.05 g of powder was dissolved in 10 ml-15 of ethanol, diluted to fall within the analytical range, and injected into the LCMSMS for analysis.", "data": [{"substance": "Vitamin E", "values": [{"measurement": "Chemical stability over the entire period (result in words)", "value": "no significant losses"}]}]}
